## Yeast mating assay B: variants of the scFv Ab-14

Binding partner: SARS-CoV-2 spike HR2 peptide, sequence PDVDLGDISGINAS.

Parent scFv Ab-14: VH joined to VL by the linker GGGGSGGGGSGGGGS. Changes lie in the light chain CDRs alone.
VH: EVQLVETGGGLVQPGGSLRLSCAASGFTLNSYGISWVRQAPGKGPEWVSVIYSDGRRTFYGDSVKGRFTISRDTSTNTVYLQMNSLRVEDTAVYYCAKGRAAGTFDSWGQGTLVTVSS
VL: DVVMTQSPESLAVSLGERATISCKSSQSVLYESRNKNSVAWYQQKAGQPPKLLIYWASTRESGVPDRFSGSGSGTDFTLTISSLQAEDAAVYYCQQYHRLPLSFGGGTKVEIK

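The starting antibody came from a phage panning campaign against this peptide. This is the validation round: designs drawn from the data on random variants, tested in the same kind of assay. Several design methods are mixed in this list. In AlphaSeq, yeast of one mating type display the scFv and yeast of the other type display the target. Pairs that bind mate more often; barcode pairs of the diploids are counted by sequencing. The ratio of observed to expected reads was calibrated, replicate by replicate, on BCL2-family standards whose Kd was known from biolayer interferometry. Mating was done six times.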

Variants are written as CDR1, CDR2 and CDR3 of the light chain (limits as in the source). Parent: KSSQSVLYESRNKNSVA, WASTRES, QQYHRLPLS. The read-out is the apparent dissociation constant on a log10 scale (nM): the lower, the stronger. Replicates are averaged; those with no signal do not enter the mean. "ND" means that the variant was in the library but no mating with the target was seen in that replicate; the authors take this as a sign of poor binding, and no number exists. The authors averaged sequences with at least three values out of six and counted those with two or fewer as poor binders. Background: pairings of all light chain designs with three empty control strains gave a value in 4% of cases (median 2.64, 5th percentile 1.59). Values in that range, when seen in few replicates, are hard to tell from nonspecific mating. For each scFv, signals with the empty controls are counted beside the result, with their mean in brackets. The range of this assay differs from that of the first round, and the authors advise against merging the two. Of ten entries with the parent sequence, four were seen in most replicates (averages 0.34 to 2.37), three in one and three in none, so single entries are noisy.

CDR-L1	CDR-L2	CDR-L3	log10 Kd (nM) by replicate	mean, log10 nM	control signals
KSSQSVLYLSGNKNSVA	DASTREA	QQYHRLPLS	0.24 / 0.33 / 0.52 / -0.23 / -0.12 / 0.06	0.13	0/18
KISQMVKVGATKSNSIA	EMVTRAN	QQYHRLPLA	1.03 / 1.16 / 0.93 / 1.12 / 0.97 / 1.05	1.04	1/18 (2.41)
KISINQSNYNGMRSAIA	NTNLARM	QQYFHLPLM	ND / 1.34 / 0.96 / 1.74 / 1.36 / 1.05	1.29	0/18
KSSPSQLYEDRMFNSVA	NASYRES	QQYHRLPLS	0.63 / 0.67 / 0.37 / 0.67 / 0.55 / 0.36	0.54	0/18
KLSVSTSYLSVNKHSVA	EMSTRES	QQYDRLPLS	0.84 / 0.29 / 0.68 / 0.71 / 0.17 / 0.59	0.55	1/18 (2.05)
TLVQSVMGGSRTRNSVA	NAETRYD	QHYHRLPLS	0.53 / 0.87 / 0.89 / 1.03 / 0.81 / 0.83	0.83	0/18
KYSQSVLYESRNKNSVA	WASTRES	QQYHRLLLS	ND / ND / ND / ND / ND / ND	ND	0/18
KSSQSVLYESRAKNSVA	MGSTRES	QQYHRLPLS	1.04 / 1.36 / 0.79 / 1.50 / 0.74 / 0.73	1.03	0/18
QVTNISDPYGRNRNNIA	QTSERMH	QQYQMLPLA	0.20 / 0.16 / -0.10 / 0.02 / 0.04 / 0.09	0.07	1/18 (2.91)
KSSQSVLYESRNKNSVA	FASTRYS	QQYHRLPLS	2.11 / 2.53 / ND / 1.81 / 1.85 / 1.49	1.96	0/18
KSSQSVLYESRNKNSVA	WASTRES	QLYMRLPLT	1.84 / 1.75 / ND / 1.46 / 2.40 / 2.22	1.93	1/18 (1.60)
KSSQSDLYESRNKNSVA	GASLRES	QQYHRLPLS	1.00 / 1.18 / 1.06 / 0.56 / 1.36 / 1.00	1.03	1/18 (2.74)
KISQSAQYESRNKNSVA	WGSTRES	QAYHRLPLS	1.88 / 1.36 / 1.22 / 1.77 / 1.61 / 1.81	1.61	2/18 (2.71)
QTDSFYQHGDDQNQAMA	DVTMRDQ	QQYSRLPLS	0.32 / 0.73 / 0.43 / 0.24 / 0.51 / 0.53	0.46	3/18 (2.58)
KLSQLTGHMKMVKNNVA	EMETREN	QQYDRLPLS	1.25 / 2.07 / 1.34 / 1.41 / 1.60 / 1.50	1.53	1/18 (2.89)
KLSQSYLYESRNKNSVA	EASTRES	QQYHRLPLS	0.12 / 0.37 / -0.20 / 0.22 / 0.04 / 0.40	0.16	1/18 (2.59)
SMETHSQDNRLDWSAVA	EAHTIYQ	QQYARLPLS	1.91 / 1.56 / 1.40 / 2.31 / 2.21 / 1.89	1.88	1/18 (3.15)
KLSQITGHMSVSKNNVA	EMETRAK	QQYDRLPLS	0.77 / 1.06 / 1.25 / 0.58 / 0.97 / 0.81	0.91	3/18 (2.42)
KLTQSTHIESFNKNNVA	EMTTRES	QSYDRLPLS	1.51 / 1.72 / 1.04 / 1.62 / 1.53 / 1.53	1.49	0/18
KVSQLDLGESRNKNSVA	HASTRLS	QQYHRLPLS	0.54 / 0.84 / 0.61 / 0.60 / 0.67 / 1.03	0.71	2/18 (2.68)
MLSQMWAIGQKVKNSVA	QASMRFN	QQYDRLPLE	1.16 / 1.59 / 1.30 / 1.33 / 1.63 / 1.68	1.45	1/18 (2.90)
KLSMSQLYESRNKNSVA	NASTRLS	QQYHRLPLS	0.28 / 0.24 / 0.06 / 0.20 / 0.16 / 0.42	0.23	0/18
HVAQTRQEDIQNKNSVA	EGSVVIS	QQYSKLPLS	0.94 / 1.07 / 0.91 / 1.03 / 1.05 / 1.26	1.04	1/18 (2.49)
KSSQSVLYESRNKQSVA	WASTRES	QQYHRLPLS	1.18 / 0.68 / 0.43 / 0.81 / 0.35 / 0.65	0.68	0/18
QLSSITGHMQMIKNNVA	EMETREN	QQYERLPLS	0.50 / 0.26 / 0.28 / 0.16 / 0.25 / 0.73	0.36	2/18 (3.26)
KSSQSVLYESRNHNSVA	WADTRES	QQYHRLPLS	ND / 1.74 / ND / 2.40 / ND / 2.56	2.24	0/18
KESQSVLLEWRNKNSVA	DASTRES	QQYHRLPLS	0.30 / -0.30 / -0.16 / -0.33 / -0.03 / 0.08	-0.08	0/18
ADSQSVLYESRNKNSVA	WASTRES	QQPHRWPLW	ND / ND / ND / ND / ND / ND	ND	0/18
MMSQVTGLGTRHRNNVA	QTSTREP	QQYDHLPLI	0.68 / 0.77 / 0.88 / 0.75 / 0.66 / 0.93	0.78	0/18
KSSISVLYESGNKNSVA	EASTRES	QQYHRLPLS	0.64 / 0.30 / 0.24 / 0.24 / 0.19 / 0.68	0.38	2/18 (2.97)
QSSQSFLYESRNKNSVA	EASTRES	QQYHRLPLS	-0.10 / -0.18 / -0.23 / -0.16 / -0.06 / 0.27	-0.08	0/18
KLQMLELYEGRWKNSVA	SASTREE	QQYHRLPLS	0.31 / 0.11 / 0.29 / -0.04 / 0.12 / 0.30	0.18	1/18 (2.35)
KLQQSQLYESRNKNSVA	HASTRED	QQYHRLPLS	0.12 / 0.09 / -0.02 / -0.18 / -0.13 / -0.16	-0.05	0/18
QMTENDRGHQAGGGSIA	DATETME	QQYMHLPLS	0.52 / 0.66 / 0.30 / 0.24 / 0.44 / 0.55	0.45	1/18 (2.29)
KLQQESDNMNDMQNSVA	EQSMVQY	QHYWRLPLT	ND / ND / ND / ND / ND / ND	ND	0/18
KSSQSVLYESGNLNSVA	AASTRES	QQYHILPLS	ND / 0.91 / 1.25 / 1.29 / 1.38 / 1.62	1.29	0/18
KIEISNSWSLRGTKAVA	QASTRAH	QQYQRLPLL	0.74 / 1.47 / 1.26 / 1.30 / 1.42 / 0.98	1.20	2/18 (2.92)
KLVQSWLYESRNKNSVA	NASTRES	QQYHRLPLS	0.23 / 0.31 / 0.11 / 0.34 / 0.30 / 0.30	0.27	2/18 (2.34)
HISPSFMVESRLKNSVA	QTTTRES	QQYDRLPLS	0.40 / 0.27 / 0.34 / 0.29 / 0.34 / 0.40	0.34	2/18 (2.06)
KITAIMRFEQKNSNNIA	EVTTRSK	QQYYRLPLS	1.04 / 0.21 / 0.45 / 0.40 / 0.47 / 0.74	0.55	0/18
MVLKEDFQELAAKNAVA	NASEKET	QHYARLPLV	1.64 / 1.67 / 1.28 / 2.02 / 2.29 / 1.29	1.70	0/18
KLTMITGLEKVSKNNVA	EMETREE	QQYNRLPLS	-0.02 / -0.07 / -0.12 / -0.36 / -0.21 / -0.04	-0.14	2/18 (2.63)
KVSPSWLGEDRNCNSVA	QASCRES	QQYHRLPLS	1.74 / 0.81 / 0.49 / 0.34 / 0.85 / 1.11	0.89	0/18
KLSQSVETGSRNKNSVA	WASTRES	QQYHRLPIS	1.00 / 1.03 / 0.55 / 0.48 / 0.53 / 0.78	0.73	2/18 (2.92)
FSLQSVLMESRNFNSVA	HASTRED	QQYHRLPLS	ND / 1.23 / 2.05 / ND / 1.98 / 3.20	2.11	0/18
KQSPQDLQQSRMKNQVA	DASTRES	QQYHRLPLS	0.12 / -0.15 / -0.15 / -0.28 / -0.19 / -0.09	-0.12	1/18 (2.26)
KLRQSTLYESRNDNSVA	NASTRES	QQYHRLPLS	1.47 / 0.97 / 0.93 / 0.00 / 0.77 / 1.11	0.87	0/18
HISPMQAYAYEAKNSVA	DTETKLN	QQYIRLPLS	1.85 / 0.75 / 1.50 / 0.58 / 1.02 / 1.61	1.22	0/18
KSGQGVLYESRNKNAVA	GASTRES	QQYHRLPLS	-0.10 / -0.29 / -0.30 / -0.27 / -0.29 / -0.25	-0.25	1/18 (4.66)

From the AlphaSeq antibody data of Li et al. 2023 (doi:10.1038/s41467-023-39022-2), copy in the FLAb collection.